{"source": "paper PMC4263610", "about": "“Derivation of ligands for the complement C3a receptor from the C-terminus of C5a” (European Journal of Pharmacology, 2014)", "target": "T1, C5a1 (Homo sapiens, UniProt P21730)", "T1 construct": "the receptors for both C3a and C5a are expressed in HMDM; endogenous in cells; host or cells: human monocyte-derived macrophages (HMDM)", "T1 sequence (P21730 1-350)": "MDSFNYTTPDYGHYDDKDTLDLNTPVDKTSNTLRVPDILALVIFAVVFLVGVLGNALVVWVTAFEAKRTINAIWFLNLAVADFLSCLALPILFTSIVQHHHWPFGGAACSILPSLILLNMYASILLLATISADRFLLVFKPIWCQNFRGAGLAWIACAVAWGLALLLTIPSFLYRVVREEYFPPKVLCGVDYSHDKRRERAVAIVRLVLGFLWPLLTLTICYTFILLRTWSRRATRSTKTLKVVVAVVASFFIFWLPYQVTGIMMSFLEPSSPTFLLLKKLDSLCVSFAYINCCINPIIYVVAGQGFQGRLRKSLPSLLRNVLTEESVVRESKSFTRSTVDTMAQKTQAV", "test": "xCELLigence, antagonism of peptide-evoked response by C5a1 antagonist PMX53 in HMDM", "type": "cell-based", "conditions": "peptides 20, 31, 47, 49, 54 at EC50 concentrations, PMX53 pre-incubated 1 h, n=3–5", "method": "HMDM were seeded overnight at 30,000 cells/well in 384-well E-Plates (Roche). Approximately 24 h later, HMDM media were exchanged for serum-free IMDM and equilibrated at 37 °C and 5% CO2 for 2 h prior to ligand addition. Ligands were prepared at a final DMSO concentration of 0.5% (or less) in serum-free IMDM. Antagonists PMX53 and SB 290157 were incubated for 1 h prior to agonist addition, at concentration ranges known to cause substantial inhibition of receptor activation in these cells. After agonist addition, measurements were taken continuously for ~1.5 h at 37 °C. The RTCA software was used for data analysis, with statistical analysis using GraphPad Prism 5.0c (GraphPAD Software Inc., San Diego, CA).\nUsing the xCELLigence, the hits were tested in the presence of both the C3a receptor and C5a1 antagonists, SB 290157 and PMX53, respectively (see Fig. 1C and D). […] The IC50 of SB 290157 in the presence of peptides 20, 31, 47, 49 and 54 is highlighted in Table 1. […] The xCELLigence activation profiles are depicted in Fig. 2, where all the peptides even at a very high dose (100 µM) have a monophasic profile more similar to that of C3a than of C5a. Despite some being partial agonists at the C3a receptor, none of the peptides were able to antagonize C3a activation of HMDM when tested at 10 µM (data not shown).", "data": [{"substance": "AcPhe[Lornithine-Pro-D-cyclohexylalanine-Trp-Arg] (sidechain bridge or staple) [PMX53, cyclic C5a1 antagonist]", "values": [{"measurement": "change of peptide-evoked cell index in the presence of PMX53", "value": "No change"}]}]}
